According to article PMC12332266 (Frontiers in Pharmacology, 2025):

Columns and labels:
[1] = test system: hiPSC-CM (iCell Cardiomyocytes^2); assay: RTCA CardioECR assessment (impedance and electrophysiology parameters)
Experimental: (§1) Culture media change was performed every 2 days.
After seeding on fibronectin-coated xCELLigence ePlates (Agilent Technologies, Inc. Santa Clara, CA, USA), iCell^2 CM were monitored continuously through impedance electrodes. The following impedance parameters were measured: Cell Index (CI, measure of cell “health” and monolayer integrity), beating rate (BR) and amplitude (CI Amplitude, magnitude of contraction). Electrophysiology-like parameters (Field Potential Duration (FPD), considered as a surrogate for QT in in vivo studies, and Spike Amplitude (SA), depolarization induced by Na^+ channel opening) were measured starting from day 4–6, following the monolayer formation. […] All RTCA CardioECR data were double normalized (DMSO control and the baseline) with no further statistical group comparison for the normalized parameters. The variability of the data within the treatment groups was assessed by standard deviation.

[2] = ref extensive literature search, cited from earlier work
[3] = test system: hiPSC-CM (iCell Cardiomyocytes^2)
Experimental: as §1
Total RNA was extracted from hiPSC-CM using the miRNeasy 96 Kit (Qiagen, Hilden, Germany) following the manufacturer’s recommendations. After the extraction, RNA purity was assessed by NanoDrop™ 8000 Spectrophotometer (Thermo Fisher Scientific Inc.). 5–10 ng/μL of RNA per sample were reverse transcribed and pre-amplified by using the TaqMan™ Advanced miRNA cDNA Synthesis Kit (Thermo Fisher Scientific Inc.). The synthesized cDNA was used for RT-qPCR with selected TaqMan™ assays (Thermo Fischer Scientific Inc.). RT-qPCR was carried out following the Applied Biosciences TaqMan miRNA expression assay protocol on a ViiA7 instrument (Thermo Fisher Scientific, Inc.). […] Therefore, to maximize the number of drugs and concentrations, explored in the same study, we pooled the triplicates for intracellular profiling of miRNAs. Therefore, no statistical analysis was performed on the data of miRNA profiling in the pellets of hiPSC-CM.
Following RTCA CardioECR assessment, hiPSC-CM cell pellets were collected, and total RNA was extracted and purified to investigate miRNAs upregulation by RT-qPCR. […]

[4] = 72-hour treatment, lowest concentration causing at least 20% change from baseline

## Endothelin-1
[1]; 72-hour treatment, at least 10% change
  Field Potential Duration MEC: 0.001 µM
[1]; 72-hour treatment, at least 20% change
  Contractility Amplitude MEC: 0.001 µM
[1]; 72-hour treatment, at least 40% change
  Spike Amplitude (SA) MEC: 0.0003 µM
[1]; [4]
  Beating rate (BR) MEC: ND (ND – not detected, magnitude of change was lower than 20%)
  Cell index (CI) MEC: ND (ND – not detected, magnitude of change was lower than 20%)
[1]; change ≥20%, Table 2
  RTCA, MEC (BR): ND (ND – not detected, magnitude of change was lower than 20% for CI/BR)
  RTCA, MEC (CI): ND (ND – not detected, magnitude of change was lower than 20% for CI/BR)
[2]; Supplementary Table 1
  Cmax total: 2 pM
[2]; Table 1
  Cmax total: 2 pM
[3]
  miRNAs hiPSC-CM pellet, MEC overall: 0.0003 µM (miR-34a-5p, miR-126-3p, miR-133b, miR-146b-5p, miR-187-3p, miR-320a-5p)
  miRNAs upregulated at the MEC overall (hiPSC-CM pellet): 0.0003 µM (miR-34a-5p, miR-126-3p, miR-133b, miR-146b-5p, miR-187-3p, miR-320a-5p)

Where two headings read alike, the source gives them in different places.
